Results from article PMC4183577, “Structural Basis for Inhibition of the MDM2:p53 Interaction by an Optimized MDM2-Binding Peptide Selected with mRNA Display” (PLoS ONE, 2014).

Assay: CD spectroscopy with TFE
Format: physicochemical
Conditions: 0.1 mM peptide, 25°C, light-path 2 mm
Excerpt: […]. The light-path length used was 2 mm. The results were expressed as mean residue molar ellipticity [θ].

CD spectral pattern in the presence of TFE (30% and 50% TFE): hardly affected the spectral pattern
SMILES: CC(C)C[C@H](NC(=O)[C@H](CC(=O)O)NC(=O)[C@H](CO)NC(=O)[C@H](Cc1ccccc1)NC(=O)[C@@H](NC(=O)[C@H](CCC(=O)O)NC(=O)CCCCCNC(=O)CCCC[C@@H]1SC[C@@H]2NC(=O)N[C@@H]21)[C@@H](C)O)C(=O)N[C@@H](Cc1c[nH]c2ccccc12)C(=O)N[C@@H](CCCCN)C(=O)N[C@@H](CC(C)C)C(=O)N[C@@H](CC(C)C)C(=O)N1CCC[C@H]1C(=O)N[C@@H](CCC(=O)O)C(=O)O [p53 peptide]
CD spectral pattern in the absence of TFE (0% TFE): characteristic spectral pattern for an unstructured peptide
